Source: publication PMC10344917, “Affinity and cooperativity modulate ternary complex formation to drive targeted protein degradation” (Nature Communications, 2023)

Amino acid sequences for entries named in this document (tags omitted). Residues count along the entry.
UniProt P40337, 54-213 limits assumed: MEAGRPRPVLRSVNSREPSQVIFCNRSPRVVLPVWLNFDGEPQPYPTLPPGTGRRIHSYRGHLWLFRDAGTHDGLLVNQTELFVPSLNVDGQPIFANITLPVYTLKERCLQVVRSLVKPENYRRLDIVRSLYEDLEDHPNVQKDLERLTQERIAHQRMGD

Assays:
BRD4 [1] = molecular target: T1, BRD4 (Homo sapiens, UniProt O60885); experiment: BRD4 degradation time course in A375 cells (MSD); type: cell-based; settings: single concentration at or near maximal activity
T1 construct: endogenous in cells; host or cells: A375
Source text: To measure the rate of protein degradation, we treated A375 cells with a single concentration of each PROTAC and measured the decrease in target abundance over time as shown in Figs. 4b and5b.
MSD electrochemiluminescence signals were subtracted by the average background signal from wells with lysis buffer alone. Normalized MSD values (POC) for individual compound treated wells were acquired by dividing background-subtracted assay signal by signal from vehicle control wells (cells + 0.1% DMSO) and multiplying by 100. This POC data was graphed using a nonlinear regression curve fit xy analysis and a log(inhibitor) vs response —variable slope (four parameter) model for dose response curves (Graphpad Prism 9, San Diego, CA, USA). To calculate area under the curve, all points on the curve were connected and vertical lines were drawn from each point down to y = 0, generating a series of trapezoids. The area of each trapezoid was determined using the equation A = (1/2)(h)(b1 + b2), where h = 1 (distance between points), b1 = POC of the first point and b2 = POC of the second point. The sum of all trapezoids provides an approximate area under the curve (AUC). For half-life (t1/2) determination in time course studies, a one-phase decay model was used for curve fitting and the time at which the curve crossed 50 POC was determined through interpolation (Graphpad Prism 9, San Diego, CA, USA).

[2] = molecular target: T2, VBC / BRD4^BD1 ternary complex (Homo sapiens, UniProt O60885+P40337); experiment: SPR ternary complex binding, VBC surface with preformed PROTAC/BRD4 BD1 complex
T2 construct: VHL (54-213), ElonginB (17-112) ElonginC (1-104); BRD4 (44-168); His6 (N, cleaved yes); made in house
Procedure: (§1) SPR experiments were performed on a Biacore 8 K or T200 instrument (Cytiva). […] The running buffer during immobilization was PBS with 0.005% P20. Either high-density (3000-4000 RU) or low-density (300-400 RU) VBC-functionalized surfaces were created, followed by equilibration in the running buffer for 3 h.
(§2) PROTACs (10 mM in 100% DMSO) were initially prepared at 200 nM in a running buffer (20 mM Tris pH 8.0, 250 mM NaCl, 1 mM TCEP, 0.01% P20, 0.2 mg/ml BSA) with a concentration of 2% DMSO. This solution was mixed at 1:1 ratio with a solution of 5 μM of the SMARCA2 or BRD4 bromodomain protein in the running buffer. […] For ternary experiments, solutions were injected sequentially in single-cycle kinetic format without regeneration (contact time 60 s, flow rate 80 μL/min, dissociation time 300 s) using a stabilization period of 60 s and syringe wash (50% DMSO) between injections onto a low-density VBC-functionalized surface.
(§3) Raw sensorgrams were processed by performing double reference subtraction, solvent correction, and analysis was done using Biacore Insight Evaluation Software. Kinetic analysis was performed by fitting data to a 1:1 Langmuir interaction model and a steady-state affinity model was used to evaluate equilibrium binding affinity.

[3] = molecular target: T3, VBC / BRD4^BD2 ternary complex (Homo sapiens, UniProt O60885+P40337); experiment: SPR ternary complex binding, VBC surface with preformed PROTAC/BRD4 BD2 complex
T3 construct: VHL (54-213), ElonginB (17-112) ElonginC (1-104); His6 (N); made in house
Procedure: as §1, §2, §3

BRD4 [4] = molecular target: T1, BRD4; experiment: BRD4 degradation, MSD assay, dose response; type: cell-based; parameters: AUC (area under the dose-response curve): unit not given beside the values
Procedure: A375 cells were treated with SMARCA2 or BRD4 degraders for 2 h (4 h for BRD4) and generated lysates. SMARCA2 or BRD4 protein was measured with a variation of a sandwich ELISA that was assembled from commercially available antibodies as well as reagents and instrumentation procured from Meso Scale Discovery (MSD). Degradation parameter, DC50, is not suitable for PROTACs that induce partial/incomplete DR curves at a fixed time point; maximum drop in target protein level (Dmax) >>0. Conversely, the area under the curve (AUC) can be calculated as a degradation activity parameter for any DR curve, and it encompasses both the degradation potency (i.e., DC50) and efficacy (i.e., Dmax) of PROTACs. […]
Plates were washed with 300 µL per well MSD wash buffer (MSD R61TX-1) between each step. Following the last incubation, plates were washed with MSD wash buffer then 150 µL of MSD read buffer (MSD R92TC-2) was added to each well. Plates were immediately read on a MSD plate reader (MSD Sector Imager 6000).
MSD electrochemiluminescence signals were subtracted by the average background signal from wells with lysis buffer alone. […] The area of each trapezoid was determined using the equation A = (1/2)(h)(b1 + b2), where h = 1 (distance between points), b1 = POC of the first point and b2 = POC of the second point. […]

Cc1ncsc1-c1ccc(CNC(=O)[C@@H]2C[C@@H](O)CN2C(=O)[C@@H](NC(=O)COCCOCCOCCNC(=O)C[C@@H]2N=C(c3ccc(Cl)cc3)c3c(sc(C)c3C)-n3c(C)nnc32)C(C)(C)C)cc1 [Compound 17, (2S,4R)-1-((S)-2-(tert-Butyl)-17-((S)-4-(4-chlorophenyl)-2,3,9-trimethyl-6H-thieno[3,2-f][1,2,4]triazolo[4,3-a][1,4]diazepin-6-yl)-4,16-dioxo-6,9,12-trioxa-3,15-diazaheptadecan-1-oyl)-4-hydroxy-N-(4-(4-methylthiazol-5-yl)benzyl)pyrrolidine-2-carboxamide, reference compound]
Initial Degradation Rate (BRD4 [1]): 1.95 %/min | α (cooperativity, KLP/KLPT) ([2]; BRD4 (BD1)): 1.4 | ternary complex binding affinity with BRD4^BD1 weaker compared to BRD4^BD2 ([2]; SPR, BD1 vs BD2): 10 fold | α (cooperativity, KLP/KLPT) [3]: 13.7 | Dmax (BRD4 [4]; A-375): 98% | AUC (area under the dose-response curve) (BRD4 [4]; BRD4 MSD assay, A375 cells, 4 h): 39
